Literature values as cited in patent US20080287669A1, “METHODS AND COMPOSITIONS FOR IDENTIFYING COMPOUNDS USEFUL IN NUCLEIC ACID PURIFICATION” (priority 2007, published 2008).
This is a selection: effects in other tests are not listed, and their absence says nothing.

Settings: Table 3, miscible organic solvents

OCCN(CCO)CCO
Dielectric Constant (DC): 29.36
